Legend:
Assay type in all cases: binding
Details in all cases: Compound Concentration 10 µM
panel of 442 kinases [1] = target: T1, panel of 442 kinases (Homo sapiens, UniProt O00329)
T1 construct: purchased KINOMEscan
Text: (§1) We assessed the selectivity of members of this scaffold using the KINOMEscan methodology across a near comprehensive panel of 442 kinases [[18,27]].

Sequences of proteins named here, by UniProt entry; tags and fusion partners are left off. A change or cut given only in a name is not applied to a line headed by its entry. Residues count along the entry.
UniProt O00329: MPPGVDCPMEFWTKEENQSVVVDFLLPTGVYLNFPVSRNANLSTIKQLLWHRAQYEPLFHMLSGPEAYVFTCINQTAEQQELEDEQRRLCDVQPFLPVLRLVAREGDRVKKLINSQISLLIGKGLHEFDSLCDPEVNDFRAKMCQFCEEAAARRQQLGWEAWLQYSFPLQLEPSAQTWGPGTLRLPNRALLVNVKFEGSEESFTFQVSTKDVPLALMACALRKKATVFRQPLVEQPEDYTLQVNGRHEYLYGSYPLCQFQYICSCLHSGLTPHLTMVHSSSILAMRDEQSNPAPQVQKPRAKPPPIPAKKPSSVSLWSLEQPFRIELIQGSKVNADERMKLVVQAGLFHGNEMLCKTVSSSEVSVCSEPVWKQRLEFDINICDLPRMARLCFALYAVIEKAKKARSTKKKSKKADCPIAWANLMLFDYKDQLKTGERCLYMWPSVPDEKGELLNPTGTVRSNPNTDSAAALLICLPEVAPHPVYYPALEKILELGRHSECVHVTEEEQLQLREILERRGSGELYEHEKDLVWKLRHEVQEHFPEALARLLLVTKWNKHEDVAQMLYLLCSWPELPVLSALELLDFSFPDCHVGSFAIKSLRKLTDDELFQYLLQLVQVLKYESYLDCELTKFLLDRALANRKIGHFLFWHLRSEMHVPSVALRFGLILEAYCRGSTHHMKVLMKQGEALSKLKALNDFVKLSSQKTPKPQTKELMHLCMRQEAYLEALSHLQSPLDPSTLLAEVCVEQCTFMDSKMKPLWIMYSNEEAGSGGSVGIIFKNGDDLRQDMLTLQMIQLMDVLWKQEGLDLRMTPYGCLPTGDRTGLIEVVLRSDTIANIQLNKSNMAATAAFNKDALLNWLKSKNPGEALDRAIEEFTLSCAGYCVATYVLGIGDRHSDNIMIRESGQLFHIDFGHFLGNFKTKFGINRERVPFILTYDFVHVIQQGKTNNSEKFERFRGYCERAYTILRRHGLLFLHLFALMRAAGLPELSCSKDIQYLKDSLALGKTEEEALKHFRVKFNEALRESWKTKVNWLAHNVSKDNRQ
UniProt O15264: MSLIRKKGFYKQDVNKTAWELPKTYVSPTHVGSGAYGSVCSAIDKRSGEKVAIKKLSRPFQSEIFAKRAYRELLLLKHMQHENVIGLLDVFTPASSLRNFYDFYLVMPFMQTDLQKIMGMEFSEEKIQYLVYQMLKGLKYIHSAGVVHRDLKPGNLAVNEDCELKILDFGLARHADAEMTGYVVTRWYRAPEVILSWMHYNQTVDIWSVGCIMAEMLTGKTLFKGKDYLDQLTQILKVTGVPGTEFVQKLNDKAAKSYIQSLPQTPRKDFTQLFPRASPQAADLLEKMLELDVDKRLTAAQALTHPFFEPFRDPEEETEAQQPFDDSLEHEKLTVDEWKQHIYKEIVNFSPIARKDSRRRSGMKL
UniProt P21709, 26-976: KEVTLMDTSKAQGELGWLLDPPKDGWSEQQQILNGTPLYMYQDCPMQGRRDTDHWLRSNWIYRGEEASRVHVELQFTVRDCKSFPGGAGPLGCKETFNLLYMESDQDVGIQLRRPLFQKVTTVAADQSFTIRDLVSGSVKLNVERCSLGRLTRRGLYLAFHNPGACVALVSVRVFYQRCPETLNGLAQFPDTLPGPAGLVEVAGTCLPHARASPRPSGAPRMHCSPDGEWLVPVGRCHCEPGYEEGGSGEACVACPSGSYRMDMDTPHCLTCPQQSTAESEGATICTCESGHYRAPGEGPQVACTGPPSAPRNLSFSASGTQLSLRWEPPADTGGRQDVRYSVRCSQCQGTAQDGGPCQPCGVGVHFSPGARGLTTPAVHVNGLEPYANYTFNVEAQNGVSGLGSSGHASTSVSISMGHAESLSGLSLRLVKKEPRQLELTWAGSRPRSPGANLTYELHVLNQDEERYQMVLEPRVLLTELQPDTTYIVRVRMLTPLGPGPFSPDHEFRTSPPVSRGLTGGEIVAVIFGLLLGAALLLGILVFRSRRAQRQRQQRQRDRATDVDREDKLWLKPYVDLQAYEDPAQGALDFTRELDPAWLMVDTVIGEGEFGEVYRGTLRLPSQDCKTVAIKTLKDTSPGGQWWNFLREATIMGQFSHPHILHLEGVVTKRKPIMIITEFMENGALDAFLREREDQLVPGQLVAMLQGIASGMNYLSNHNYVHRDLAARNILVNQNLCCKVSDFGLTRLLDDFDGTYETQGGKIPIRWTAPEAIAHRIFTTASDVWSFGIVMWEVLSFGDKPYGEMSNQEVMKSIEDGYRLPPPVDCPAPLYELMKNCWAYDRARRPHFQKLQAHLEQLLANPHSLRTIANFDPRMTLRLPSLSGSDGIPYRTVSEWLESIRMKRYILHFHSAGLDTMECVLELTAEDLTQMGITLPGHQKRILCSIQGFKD
UniProt P37023, 22-503: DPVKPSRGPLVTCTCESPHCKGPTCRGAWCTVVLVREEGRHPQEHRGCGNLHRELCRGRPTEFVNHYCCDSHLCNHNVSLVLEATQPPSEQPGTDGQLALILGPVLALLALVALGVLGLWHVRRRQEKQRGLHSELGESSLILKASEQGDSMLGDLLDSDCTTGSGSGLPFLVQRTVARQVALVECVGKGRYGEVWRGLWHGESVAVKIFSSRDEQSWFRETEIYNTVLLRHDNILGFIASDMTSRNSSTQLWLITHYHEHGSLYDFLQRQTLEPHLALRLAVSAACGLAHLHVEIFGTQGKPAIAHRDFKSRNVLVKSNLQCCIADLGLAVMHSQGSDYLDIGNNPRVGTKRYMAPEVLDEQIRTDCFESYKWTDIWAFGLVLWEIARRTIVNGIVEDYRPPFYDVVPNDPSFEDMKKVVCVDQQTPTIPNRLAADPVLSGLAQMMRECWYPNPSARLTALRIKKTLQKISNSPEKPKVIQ
UniProt P57058: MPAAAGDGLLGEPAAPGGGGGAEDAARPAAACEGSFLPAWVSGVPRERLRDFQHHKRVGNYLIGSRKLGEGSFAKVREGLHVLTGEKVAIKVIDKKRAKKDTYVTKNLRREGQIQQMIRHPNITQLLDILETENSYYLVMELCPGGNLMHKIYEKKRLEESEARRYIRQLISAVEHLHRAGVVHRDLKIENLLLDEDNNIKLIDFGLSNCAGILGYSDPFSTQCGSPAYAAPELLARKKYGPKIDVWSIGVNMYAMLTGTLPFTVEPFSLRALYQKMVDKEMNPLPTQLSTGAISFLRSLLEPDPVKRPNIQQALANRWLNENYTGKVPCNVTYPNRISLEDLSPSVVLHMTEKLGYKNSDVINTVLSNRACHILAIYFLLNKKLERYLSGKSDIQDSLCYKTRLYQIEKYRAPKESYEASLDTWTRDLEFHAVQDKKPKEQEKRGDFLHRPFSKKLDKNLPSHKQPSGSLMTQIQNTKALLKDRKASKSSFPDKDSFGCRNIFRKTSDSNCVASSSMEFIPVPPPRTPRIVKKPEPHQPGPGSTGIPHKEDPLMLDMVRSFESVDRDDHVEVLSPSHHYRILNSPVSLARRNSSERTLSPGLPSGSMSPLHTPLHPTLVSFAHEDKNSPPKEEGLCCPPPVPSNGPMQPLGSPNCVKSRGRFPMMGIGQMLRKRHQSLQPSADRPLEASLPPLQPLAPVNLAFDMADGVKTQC
UniProt Q15303, 26-1308: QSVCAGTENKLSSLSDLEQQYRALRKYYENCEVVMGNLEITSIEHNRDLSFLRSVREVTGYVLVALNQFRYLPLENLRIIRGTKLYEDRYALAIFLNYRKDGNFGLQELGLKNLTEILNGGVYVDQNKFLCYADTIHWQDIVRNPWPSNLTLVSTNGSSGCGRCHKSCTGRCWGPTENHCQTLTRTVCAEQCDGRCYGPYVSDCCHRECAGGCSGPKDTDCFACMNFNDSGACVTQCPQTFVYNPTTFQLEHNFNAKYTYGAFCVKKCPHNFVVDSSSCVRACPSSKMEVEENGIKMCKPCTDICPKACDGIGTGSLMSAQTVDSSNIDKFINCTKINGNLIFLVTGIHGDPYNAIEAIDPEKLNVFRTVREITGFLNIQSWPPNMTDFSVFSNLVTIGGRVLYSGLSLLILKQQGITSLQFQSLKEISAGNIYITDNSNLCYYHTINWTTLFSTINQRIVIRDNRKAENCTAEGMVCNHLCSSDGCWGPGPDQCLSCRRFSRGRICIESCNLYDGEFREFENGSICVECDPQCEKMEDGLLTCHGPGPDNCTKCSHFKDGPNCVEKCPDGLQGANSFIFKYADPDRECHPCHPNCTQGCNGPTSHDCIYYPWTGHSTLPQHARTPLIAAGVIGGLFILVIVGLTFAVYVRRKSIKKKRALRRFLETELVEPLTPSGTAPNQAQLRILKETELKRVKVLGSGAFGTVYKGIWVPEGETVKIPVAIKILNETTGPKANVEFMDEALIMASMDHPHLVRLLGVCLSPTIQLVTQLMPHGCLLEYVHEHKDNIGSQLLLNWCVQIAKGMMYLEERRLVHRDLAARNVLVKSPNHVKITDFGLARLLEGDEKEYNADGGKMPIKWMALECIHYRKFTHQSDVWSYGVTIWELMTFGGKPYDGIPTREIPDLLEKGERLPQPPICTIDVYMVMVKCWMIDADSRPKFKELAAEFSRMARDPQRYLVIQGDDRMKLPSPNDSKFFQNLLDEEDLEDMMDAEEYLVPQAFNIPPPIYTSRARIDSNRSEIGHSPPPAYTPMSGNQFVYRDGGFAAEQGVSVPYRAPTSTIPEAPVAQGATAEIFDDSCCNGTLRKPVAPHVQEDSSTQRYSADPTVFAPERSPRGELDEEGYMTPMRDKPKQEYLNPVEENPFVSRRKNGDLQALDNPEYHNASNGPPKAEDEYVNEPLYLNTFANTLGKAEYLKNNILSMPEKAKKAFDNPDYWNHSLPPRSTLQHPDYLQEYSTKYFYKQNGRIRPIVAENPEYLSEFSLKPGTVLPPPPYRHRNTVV
UniProt Q16539, whole entry: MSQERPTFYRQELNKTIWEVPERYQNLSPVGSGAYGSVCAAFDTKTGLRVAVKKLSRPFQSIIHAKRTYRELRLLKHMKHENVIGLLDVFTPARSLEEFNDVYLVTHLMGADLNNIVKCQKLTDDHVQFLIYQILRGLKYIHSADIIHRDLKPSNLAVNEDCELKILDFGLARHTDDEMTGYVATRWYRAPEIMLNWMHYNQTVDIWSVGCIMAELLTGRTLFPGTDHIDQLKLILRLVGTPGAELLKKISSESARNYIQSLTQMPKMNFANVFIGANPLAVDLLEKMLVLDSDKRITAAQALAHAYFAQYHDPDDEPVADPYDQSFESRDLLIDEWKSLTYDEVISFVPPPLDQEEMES
UniProt Q99755: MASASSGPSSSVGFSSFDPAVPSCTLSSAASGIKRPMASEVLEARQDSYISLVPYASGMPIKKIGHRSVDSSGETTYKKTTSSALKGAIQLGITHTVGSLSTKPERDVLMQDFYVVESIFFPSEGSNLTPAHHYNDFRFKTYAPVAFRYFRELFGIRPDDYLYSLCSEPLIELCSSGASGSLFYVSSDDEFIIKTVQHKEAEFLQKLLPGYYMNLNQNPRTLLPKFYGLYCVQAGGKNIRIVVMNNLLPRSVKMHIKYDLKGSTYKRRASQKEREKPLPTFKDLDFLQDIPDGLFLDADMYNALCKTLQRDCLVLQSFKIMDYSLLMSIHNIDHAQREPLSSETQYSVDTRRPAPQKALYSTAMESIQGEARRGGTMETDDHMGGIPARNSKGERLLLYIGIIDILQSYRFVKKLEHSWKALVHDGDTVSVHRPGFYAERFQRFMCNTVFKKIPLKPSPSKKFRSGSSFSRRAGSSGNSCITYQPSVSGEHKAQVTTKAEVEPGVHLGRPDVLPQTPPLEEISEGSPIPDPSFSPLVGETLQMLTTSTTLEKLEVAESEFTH
UniProt Q9UBF8: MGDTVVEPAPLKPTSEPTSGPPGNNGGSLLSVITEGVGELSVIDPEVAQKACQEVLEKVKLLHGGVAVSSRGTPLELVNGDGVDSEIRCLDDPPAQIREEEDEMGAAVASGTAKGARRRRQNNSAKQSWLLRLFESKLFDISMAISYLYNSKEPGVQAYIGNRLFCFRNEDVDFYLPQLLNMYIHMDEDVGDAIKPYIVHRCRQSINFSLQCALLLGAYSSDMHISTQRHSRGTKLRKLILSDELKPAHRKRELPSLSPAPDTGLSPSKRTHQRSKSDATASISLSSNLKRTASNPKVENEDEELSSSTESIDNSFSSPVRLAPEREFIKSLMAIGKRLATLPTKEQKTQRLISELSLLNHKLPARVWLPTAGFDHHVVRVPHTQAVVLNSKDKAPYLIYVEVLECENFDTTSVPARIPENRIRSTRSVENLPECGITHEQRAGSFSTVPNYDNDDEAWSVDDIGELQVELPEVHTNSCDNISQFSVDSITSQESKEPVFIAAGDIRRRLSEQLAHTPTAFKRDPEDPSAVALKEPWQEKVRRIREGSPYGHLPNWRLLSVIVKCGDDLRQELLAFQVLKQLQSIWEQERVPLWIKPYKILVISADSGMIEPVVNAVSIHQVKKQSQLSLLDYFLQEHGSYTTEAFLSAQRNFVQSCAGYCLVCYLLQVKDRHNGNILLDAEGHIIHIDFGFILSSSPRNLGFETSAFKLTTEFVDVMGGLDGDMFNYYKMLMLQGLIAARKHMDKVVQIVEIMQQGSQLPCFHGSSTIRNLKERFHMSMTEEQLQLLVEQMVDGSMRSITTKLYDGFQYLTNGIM

panel of 442 kinases [2] = target: T2, panel of 442 kinases (Homo sapiens, UniProt O00750)
T2 construct: purchased KINOMEscan
Text: as §1

panel of 442 kinases [3] = target: T3, panel of 442 kinases (Homo sapiens, UniProt O15264)
T3 construct: purchased KINOMEscan
Text: as §1

panel of 442 kinases [4] = target: T4, panel of 442 kinases (Homo sapiens, UniProt O60674)
T4 construct: purchased KINOMEscan
Text: as §1

panel of 442 kinases [5] = target: T5, panel of 442 kinases (Homo sapiens, UniProt O75747)
T5 construct: purchased KINOMEscan
Text: as §1

panel of 442 kinases [6] = target: T6, panel of 442 kinases (Homo sapiens, UniProt O94921)
T6 construct: purchased KINOMEscan
Text: as §1

panel of 442 kinases [7] = target: T7, panel of 442 kinases (Homo sapiens, UniProt P04049)
T7 construct: purchased KINOMEscan
Text: as §1

panel of 442 kinases [8] = target: T8, panel of 442 kinases (Homo sapiens, UniProt P06239)
T8 construct: purchased KINOMEscan
Text: as §1

panel of 442 kinases [9] = target: T9, panel of 442 kinases (Homo sapiens, UniProt P10721, A829P)
T9 construct: purchased KINOMEscan
Text: as §1

panel of 442 kinases [10] = target: T10, panel of 442 kinases (Homo sapiens, UniProt P10721, D816V)
T10 construct: purchased KINOMEscan
Text: as §1

panel of 442 kinases [11] = target: T11, panel of 442 kinases (Homo sapiens, UniProt P11802)
T11 construct: purchased KINOMEscan
Text: as §1

panel of 442 kinases [12] = target: T12, panel of 442 kinases (Homo sapiens, UniProt P15056, V600E)
T12 construct: purchased KINOMEscan
Text: as §1

panel of 442 kinases [13] = target: T13, panel of 442 kinases (Homo sapiens, UniProt P21709)
T13 construct: purchased KINOMEscan
Text: as §1

panel of 442 kinases [14] = target: T14, panel of 442 kinases (Homo sapiens, UniProt P30530)
T14 construct: purchased KINOMEscan
Text: as §1

panel of 442 kinases [15] = target: T15, panel of 442 kinases (Homo sapiens, UniProt P37023)
T15 construct: purchased KINOMEscan
Text: as §1

panel of 442 kinases [16] = target: T16, panel of 442 kinases (Homo sapiens, UniProt P41743)
T16 construct: purchased KINOMEscan
Text: as §1

panel of 442 kinases [17] = target: T17, panel of 442 kinases (Homo sapiens, UniProt P42336, E542K)
T17 construct: purchased KINOMEscan
Text: as §1

panel of 442 kinases [18] = target: T18, panel of 442 kinases (Homo sapiens, UniProt P42679)
T18 construct: purchased KINOMEscan
Text: as §1

panel of 442 kinases [19] = target: T19, panel of 442 kinases (Homo sapiens, UniProt P51812)
T19 construct: purchased KINOMEscan
Text: as §1

panel of 442 kinases [20] = target: T20, panel of 442 kinases (Homo sapiens, UniProt P51957)
T20 construct: purchased KINOMEscan
Text: as §1

panel of 442 kinases [21] = target: T21, panel of 442 kinases (Homo sapiens, UniProt P52333)
T21 construct: purchased KINOMEscan
Text: as §1

panel of 442 kinases [22] = target: T22, panel of 442 kinases (Homo sapiens, UniProt P53667)
T22 construct: purchased KINOMEscan
Text: as §1

panel of 442 kinases [23] = target: T23, panel of 442 kinases (Homo sapiens, UniProt P57058)
T23 construct: purchased KINOMEscan
Text: as §1

panel of 442 kinases [24] = target: T24, panel of 442 kinases (Homo sapiens, UniProt Q00526)
T24 construct: purchased KINOMEscan
Text: as §1

panel of 442 kinases [25] = target: T25, panel of 442 kinases (Homo sapiens, UniProt Q04759)
T25 construct: purchased KINOMEscan
Text: as §1

panel of 442 kinases [26] = target: T26, panel of 442 kinases (Homo sapiens, UniProt Q07002)
T26 construct: purchased KINOMEscan
Text: as §1

panel of 442 kinases [27] = target: T27, panel of 442 kinases (Homo sapiens, UniProt Q08881)
T27 construct: purchased KINOMEscan
Text: as §1

panel of 442 kinases [28] = target: T28, panel of 442 kinases (Homo sapiens, UniProt Q14164)
T28 construct: purchased KINOMEscan
Text: as §1

panel of 442 kinases [29] = target: T29, panel of 442 kinases (Homo sapiens, UniProt Q15303)
T29 construct: purchased KINOMEscan
Text: as §1

panel of 442 kinases [30] = target: T30, panel of 442 kinases (Homo sapiens, UniProt Q16539)
T30 construct: purchased KINOMEscan
Text: as §1

panel of 442 kinases [31] = target: T31, panel of 442 kinases (Homo sapiens, UniProt Q16584)
T31 construct: purchased KINOMEscan
Text: as §1

panel of 442 kinases [32] = target: T32, panel of 442 kinases (Homo sapiens, UniProt Q16659)
T32 construct: purchased KINOMEscan
Text: as §1

panel of 442 kinases [33] = target: T33, panel of 442 kinases (Homo sapiens, UniProt Q16832)
T33 construct: purchased KINOMEscan
Text: as §1

panel of 442 kinases [34] = target: T34, panel of 442 kinases (Homo sapiens, UniProt Q8NFD2)
T34 construct: purchased KINOMEscan
Text: as §1

panel of 442 kinases [35] = target: T35, panel of 442 kinases (Homo sapiens, UniProt Q8NG66)
T35 construct: purchased KINOMEscan
Text: as §1

panel of 442 kinases [36] = target: T36, panel of 442 kinases (Homo sapiens, UniProt Q99755)
T36 construct: purchased KINOMEscan
Text: as §1

panel of 442 kinases [37] = target: T37, panel of 442 kinases (Homo sapiens, UniProt Q9BUB5)
T37 construct: purchased KINOMEscan
Text: as §1

panel of 442 kinases [38] = target: T38, panel of 442 kinases (Homo sapiens, UniProt Q9P286)
T38 construct: purchased KINOMEscan
Text: as §1

panel of 442 kinases [39] = target: T39, panel of 442 kinases (Homo sapiens, UniProt Q9P289)
T39 construct: purchased KINOMEscan
Text: as §1

panel of 442 kinases [40] = target: T40, panel of 442 kinases (Homo sapiens, UniProt Q9UBF8)
T40 construct: purchased KINOMEscan
Text: as §1

panel of 442 kinases [41] = target: T41, panel of 442 kinases (Homo sapiens, UniProt Q9Y616)
T41 construct: purchased KINOMEscan
Text: as §1

panel of 442 kinases [42] = target: T42, panel of 442 kinases (Homo sapiens, UniProt Q9Y6R4)
T42 construct: purchased KINOMEscan
Text: as §1

## COc1cc(C(=O)N2CCC(N3CCN(C)CC3)CC2)ccc1Nc1ncc2c(n1)N1CCc3cccc(c31)C(=O)N2C [Compound 24]
Panel of 442 kinases [1]
  KINOMEscan: PIK3CD: 100
Panel of 442 kinases [2]
  KINOMEscan: PIK3C2B: 100
Panel of 442 kinases [3]
  KINOMEscan: p38-delta: 100
Panel of 442 kinases [4]
  KINOMEscan: JAK2(JH1domain-catalytic): 100
Panel of 442 kinases [5]
  KINOMEscan: PIK3C2G: 100
Panel of 442 kinases [6]
  KINOMEscan: PFTK1: 100
Panel of 442 kinases [7]
  KINOMEscan: RAF1: 100
Panel of 442 kinases [8]
  KINOMEscan: LCK: 87
Panel of 442 kinases [9]
  KINOMEscan: KIT(A829P): 93
Panel of 442 kinases [10]
  KINOMEscan: KIT(D816V): 71
Panel of 442 kinases [11]
  KINOMEscan: CDK4-cyclinD1: 100
  KINOMEscan: CDK4-cyclinD3: 100
Panel of 442 kinases [12]
  KINOMEscan: BRAF(V600E): 100
Panel of 442 kinases [13]
  KINOMEscan: EPHA1: 100
Panel of 442 kinases [14]
  KINOMEscan: AXL: 100
Panel of 442 kinases [15]
  KINOMEscan: ACVRL1: 99
Panel of 442 kinases [16]
  KINOMEscan: PRKCI: 100
Panel of 442 kinases [17]
  KINOMEscan: PIK3CA(E542K): 75
Panel of 442 kinases [18]
  KINOMEscan: CTK: 100
Panel of 442 kinases [19]
  KINOMEscan: RSK2(Kin.Dom.1-N-terminal): 100
Panel of 442 kinases [20]
  KINOMEscan: NEK4: 100
Panel of 442 kinases [21]
  KINOMEscan: JAK3(JH1domain-catalytic): 100
Panel of 442 kinases [22]
  KINOMEscan: LIMK1: 100
Panel of 442 kinases [23]
  KINOMEscan: HUNK: 97
Panel of 442 kinases [24]
  KINOMEscan: CDK3: 100
Panel of 442 kinases [25]
  KINOMEscan: PRKCQ: 100
Panel of 442 kinases [26]
  KINOMEscan: PCTK3: 100
Panel of 442 kinases [27]
  KINOMEscan: ITK: 100
Panel of 442 kinases [28]
  KINOMEscan: IKK-epsilon: 100
Panel of 442 kinases [29]
  KINOMEscan: ERBB4: 100
Panel of 442 kinases [30]
  KINOMEscan: p38-alpha: 38
Panel of 442 kinases [31]
  KINOMEscan: MLK3: 92
Panel of 442 kinases [32]
  KINOMEscan: ERK3: 100
Panel of 442 kinases [33]
  KINOMEscan: DDR2: 100
Panel of 442 kinases [34]
  KINOMEscan: ANKK1: 100
Panel of 442 kinases [35]
  KINOMEscan: NEK11: 100
Panel of 442 kinases [36]
  KINOMEscan: PIP5K1A: 100
Panel of 442 kinases [37]
  KINOMEscan: MKNK1: 100
Panel of 442 kinases [38]
  KINOMEscan: PAK7: 100
Panel of 442 kinases [39]
  KINOMEscan: MST4: 100
Panel of 442 kinases [40]
  KINOMEscan: PIK4CB: 100
Panel of 442 kinases [41]
  KINOMEscan: IRAK3: 100
Panel of 442 kinases [42]
  KINOMEscan: MAP3K4: 98
